Literature values, collected in patent publication US20090208944A1 (priority 2005, published 2009).

Sequences of proteins named here, by UniProt entry; tags and fusion partners are left off.
UniProt P10635, whole entry: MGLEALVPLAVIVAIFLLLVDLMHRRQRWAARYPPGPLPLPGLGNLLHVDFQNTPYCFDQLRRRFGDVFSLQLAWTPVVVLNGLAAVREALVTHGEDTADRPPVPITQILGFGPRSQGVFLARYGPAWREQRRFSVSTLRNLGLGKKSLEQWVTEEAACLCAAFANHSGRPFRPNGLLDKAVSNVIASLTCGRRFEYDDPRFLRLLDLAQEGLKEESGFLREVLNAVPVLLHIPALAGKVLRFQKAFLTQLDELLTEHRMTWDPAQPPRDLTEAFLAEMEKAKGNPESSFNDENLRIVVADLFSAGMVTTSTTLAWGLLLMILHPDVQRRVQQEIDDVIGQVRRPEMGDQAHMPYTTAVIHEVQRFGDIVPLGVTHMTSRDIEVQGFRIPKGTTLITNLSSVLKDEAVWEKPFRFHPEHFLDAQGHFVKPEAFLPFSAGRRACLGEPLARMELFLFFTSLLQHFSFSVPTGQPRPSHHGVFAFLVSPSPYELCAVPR

Biological target: CYP2D6 enzyme system (Homo sapiens, UniProt P10635)
Settings: classification from literature

potency as inhibitor of the CYP2D6 enzyme system: Potent
Compound: CNCCC(Oc1ccc(C(F)(F)F)cc1)c1ccccc1 (stereo not shown) [fluoxetine]
